Only a part is listed here, and it is no random draw. The source made the active and inactive calls.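 The calls were made as follows: active = fluorescence ratio to DMSO below 75%, the collection mean minus 3 SD; inconclusive = too few cells collected in the well; inactive = the rest.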

Protein sequences, listed by entry. Tags and fused reporters are not part of them. Lines headed by an entry give the natural chain unless they say otherwise; changes in a name come on top.
UniProt Q9NP58: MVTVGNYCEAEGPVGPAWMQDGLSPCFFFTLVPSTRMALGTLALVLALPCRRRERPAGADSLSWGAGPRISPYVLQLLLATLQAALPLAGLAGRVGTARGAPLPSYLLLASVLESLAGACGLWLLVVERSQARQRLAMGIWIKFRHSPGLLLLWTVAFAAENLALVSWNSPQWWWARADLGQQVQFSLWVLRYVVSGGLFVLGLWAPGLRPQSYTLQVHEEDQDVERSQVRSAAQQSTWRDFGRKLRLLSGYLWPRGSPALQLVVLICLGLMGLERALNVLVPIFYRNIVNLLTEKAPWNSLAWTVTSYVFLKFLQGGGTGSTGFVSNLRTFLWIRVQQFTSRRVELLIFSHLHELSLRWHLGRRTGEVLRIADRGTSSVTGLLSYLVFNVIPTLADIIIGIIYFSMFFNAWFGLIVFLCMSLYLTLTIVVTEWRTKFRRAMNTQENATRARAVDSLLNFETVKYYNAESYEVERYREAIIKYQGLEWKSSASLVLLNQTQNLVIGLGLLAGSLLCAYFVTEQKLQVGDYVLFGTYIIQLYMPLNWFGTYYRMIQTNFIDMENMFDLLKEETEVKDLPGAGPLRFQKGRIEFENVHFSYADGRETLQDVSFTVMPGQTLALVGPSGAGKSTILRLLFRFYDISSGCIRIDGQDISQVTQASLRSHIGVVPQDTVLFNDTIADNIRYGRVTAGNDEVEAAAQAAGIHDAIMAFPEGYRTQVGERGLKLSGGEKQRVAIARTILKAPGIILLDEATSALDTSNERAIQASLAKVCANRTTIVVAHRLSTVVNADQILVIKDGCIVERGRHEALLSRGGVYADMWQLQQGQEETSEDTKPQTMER

In PubChem BioAssay AID602162 (NMMLSC, 2011) one finds fluorescence ratio to DMSO data, which are given here for 52 compounds.

This assay deals with ATP-binding cassette sub-family B member 6 (Homo sapiens) (UniProt Q9NP58). The assay can be described thus: blockers of ABCB6-driven porphyrin uptake – K562-ABCB6 cells, flow cytometry, MLPCN library, primary screen (AID 602162).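 Also: signal is porphyrin accumulated inside mitochondria; 100% equals median channel fluorescence of DMSO control wells; lower ratio means ABCB6 inhibition with less porphyrin fluorescence.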 The note with it: K562-ABCB6 porphyrin accumulation, 1 h, at 10 µM, hits give low values.
In the case of `CS(=O)(=O)c1cc([N+](=O)[O-])c2no[n+]([O-])c2c1`, the fluorescence ratio to DMSO was inactive: 96%.
In the case of `O=P(Nc1nccs1)(Oc1ccccc1)Oc1ccccc1`, the fluorescence ratio to DMSO is inactive: 102%.
In the case of `O=P(Nc1nccs1)(c1ccccc1)c1nc2ccccc2s1` (configuration not stated), the fluorescence ratio to DMSO is inactive: 99%.
As for `CCOP1(=S)c2c(C)nn(CCC#N)c2N=C(c2ccccc2F)N1C` (configuration not stated), the figure is inactive: 90%.
On to `O=C(O)COc1ccc([As](=O)(O)O)cc1[N+](=O)[O-]`, for which the fluorescence ratio to DMSO was inactive: 100%.
In the case of `Nc1ccccc1[As](=O)(O)c1ccccc1`, the fluorescence ratio to DMSO is inactive: 98%.
As to `NC(=O)Nc1ccc([As](=O)(O)O)cc1`, the fluorescence ratio to DMSO is inactive: 99%.
As for `CN(C(=O)Cc1ccc(Cl)c(Cl)c1)[C@H]1CC[C@@]2(CCCO2)C[C@@H]1N1CCCC1`, the figure is inactive: 97%.
As for `O=[N+]([O-])c1ccc2c(c1)nnn2O`, the fluorescence ratio to DMSO is inactive: 100%.
For the compound `CN(C)C(=O)c1cc([N+](=O)[O-])cc2c1-c1c(cc([N+](=O)[O-])cc1[N+](=O)[O-])C2=O`, the fluorescence ratio to DMSO was inactive: 98%.
In the case of `CN(C(=O)Cc1ccccc1)[C@@H]1CC[C@]2(CCCO2)C[C@H]1N1CCCC1`, the fluorescence ratio to DMSO was inactive: 104%.
For the compound `CCOP1(=S)c2c(C)nn(CCC#N)c2N=C(c2ccc(F)cc2)N1C` (configuration not stated), the fluorescence ratio to DMSO was inactive: 101%.
As to `N#CCCN(C(=O)COC(=O)C(O)(c1ccccc1)c1ccccc1)c1ccc(F)cc1`, the fluorescence ratio to DMSO is inactive: 95%.
Consider `CS(=O)(=O)c1ccc(Cl)c(NC(=O)COC(=O)C(O)(c2ccccc2)c2ccccc2)c1`, for which the fluorescence ratio to DMSO was inactive: 100%.
As for `O=[As](O)(O)c1cccnc1`, the figure is inactive: 93%; as for `COc1cc(C(=O)NCC2(N3CCOCC3)CCCCC2)cc(Cl)c1OC(C)C`, inactive: 96%; as for `O=C(OC1CN2CCC1CC2)c1ccc(Cl)cc1` (configuration not stated), inactive: 99%.
`Cc1cccc(OCC(=O)OC2CN3CCC2CC3)c1` (configuration not stated): the fluorescence ratio to DMSO was inactive: 101%.
Regarding `O=[As](O)(c1cccc(O)c1)c1cccc(O)c1`, the fluorescence ratio to DMSO is inactive: 97%.
As for `CCCOP(=S)(Nc1nc(N)cc(=O)[nH]1)OCCC`, the figure is inactive: 100%.
In the case of `Nc1cccc2c([As](=O)(O)O)cccc12`, the fluorescence ratio to DMSO is inactive: 96%.
Regarding `Cc1ccc(NCCc2c([N+](=O)[O-])cc([N+](=O)[O-])cc2[N+](=O)[O-])cc1`, the fluorescence ratio to DMSO is inactive: 101%.
As for `CCOP(=O)(Nc1cccc2ccccc12)OCC`, the figure is inactive: 94%; as for `COc1cc(C2NCCC3(OCCO3)C2(C)C)cc(OC)c1OC` (configuration not stated), inactive: 96%; as for `CCOP(=O)(Nc1ccc(C)cn1)OCC`, inactive: 99%.
For `CN(CCCl)Cc1cc(Cl)c(NC2=NCCN2)c(Cl)c1`, the fluorescence ratio to DMSO is inactive: 90%.
As to `CCOP(=O)(NC(=NC(C)c1ccccc1)NC(C)c1ccccc1)OCC` (configuration not stated), the fluorescence ratio to DMSO is inactive: 99%.
As for `CCC1=CC2Cc3nc4ccc(Cl)cc4c(N)c3C(C1)C2` (configuration not stated), the fluorescence ratio to DMSO is inactive: 110%.
In the case of `O=P1(Nc2ccccn2)COc2ccccc2OC1`, the fluorescence ratio to DMSO is inactive: 94%.
As for `CC(C)(C)C(=O)NC(Sc1ncccn1)C(Cl)(Cl)Cl` (configuration not stated), the figure is inactive: 101%; as for `Clc1n[nH]nc1-c1nn[nH][15n]1`, inactive: 98%.
Take `O=P1(N(CCCl)CCCl)NCCC(C(F)(F)F)O1` (configuration not stated): the fluorescence ratio to DMSO is inactive: 101%.
For the compound `COc1ccccc1CNC(=O)COC(=O)C(O)(c1ccccc1)c1ccccc1`, the fluorescence ratio to DMSO is inactive: 98%.
As to `CC1(CBr)Cn2c(nc3ccccc3c2=O)S1` (configuration not stated), the fluorescence ratio to DMSO is inactive: 95%.
As for `CN(C(=O)Cc1ccc(Cl)c(Cl)c1)[C@@H]1CCCC[C@H]1N1CCCC1`, the fluorescence ratio to DMSO is inactive: 100%.
As to `CC(C)/C=N\N=C(\N)N[N+](=O)[O-]`, the fluorescence ratio to DMSO is inactive: 101%.
In the case of `Cc1ccc(C(=O)OC2CN3CCC2CC3)cc1` (configuration not stated), the fluorescence ratio to DMSO was inactive: 94%.
For the compound `CC1CCC(C(C)C)C(OP(=O)(Nc2ccccn2)c2ccccc2)C1` (configuration not stated), the fluorescence ratio to DMSO is inactive: 105%.
As for `Cc1nn(-c2ccccc2)c2c1P(=O)(N1CCOCC1)N(C)C(c1ccccc1)=N2` (configuration not stated), the fluorescence ratio to DMSO is inactive: 92%.
As for `CCCC1OP(=O)(Nc2ccccc2)OCC1CC` (configuration not stated), the figure is inactive: 91%; as for `O=C(/C=C/c1ccccc1)OC1CN2CCC1CC2` (configuration not stated), inactive: 92%.
Take `CN(C)C1(CNC(=O)c2ccc(S(C)(=O)=O)cc2)CCCCC1`: the fluorescence ratio to DMSO was inactive: 100%.
Take `O=P1(Nc2ncccn2)COc2ccccc2OC1`: the fluorescence ratio to DMSO is inactive: 106%.
As to `Cc1ccc(S(=O)(=O)N(CCCN)CCCc2c(C)nc(N)[nH]c2=O)cc1`, the fluorescence ratio to DMSO is inactive: 95%.
In the case of `O=[As](O)(c1cccs1)c1cccs1`, the fluorescence ratio to DMSO was inactive: 96%.
On to `Cc1ccc(OCC(=O)OC2CN3CCC2CC3)cc1` (configuration not stated), for which the fluorescence ratio to DMSO is inactive: 93%.
As for `NS(=O)(=O)c1cccc(NC(=O)COC(=O)C(O)(c2ccccc2)c2ccccc2)c1`, the figure is inactive: 95%.
With `O=P1(Nc2ccc(Br)cn2)COc2ccccc2OC1`, the fluorescence ratio to DMSO is inactive: 90%.
As for `Nc1cccc([As](=O)(O)c2ccccc2)c1`, the fluorescence ratio to DMSO is inactive: 97%.
As for `CC1CCNP(=O)(N(CCCl)CCCl)O1` (configuration not stated), the figure is inactive: 92%; as for `O=C(O)C(O)c1ccc(N(CCCl)CCCl)cc1` (configuration not stated), inactive: 99%.
For `CCOC(=O)Nc1ccc([As](=O)(O)O)c(O)c1`, the fluorescence ratio to DMSO was inactive: 99%.
